For one compound, IC50 results are on record in US20040102442A1, “Remedies for alzheimer's disease” (priority 2000, published 2004).

For this assay, the target named is T1, Human type-X sPLA2 (Homo sapiens, UniProt O15496).
T1 construct: made in house; host or cells: CHO cells, stably transfected with a pSVL expression vector; culture supernatant used as the enzyme source
T1 sequence (O15496 43-165): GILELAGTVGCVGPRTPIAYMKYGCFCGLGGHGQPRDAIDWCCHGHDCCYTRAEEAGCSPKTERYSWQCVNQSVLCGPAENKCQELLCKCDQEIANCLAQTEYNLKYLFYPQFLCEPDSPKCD
The assay can be described thus: type-X sPLA2 inhibition test (chromogenic assay, diheptanoylthio PC). Type of assay: biochemical. To be noted: diheptanoylthio PC 1 mM, Triton X-100 0.3 mM, 30 min at 40° C., absorbance at 405 nm. An excerpt:
cDNA sequence encoding human type-X sPLA2 (Cupillard et al., J. Biol. Chem, 1997, 272, 15745-15752) was inserted into the downstream region of the promoter of pSVL SV40 Late Promoter Expression Vector (Amersham Pharmacia Biotech Inc.) that is an expression vector for mammalian cells. The obtained expression vector was transfected into the host CHO cells with a LipofectAMINE reagent (Gibco BRL Inc.) according to the manufacture's instruction to obtain the CHO cells stably expressing human type-X sPLA2. The transfected cell was cultured in A-MEM medium containing 10% fetal calf serum for 3 days and its culture supernatant was used for the measurement of each enzyme activity.
In order to identify and evaluate an inhibitor of type-X sPLA2, the following chromogenic assay is utilized. […] A general explanation for this assay is described in “Analysis of Human Synovial Fluid Phospholipase A2 on Short Chain Phosphatidylcholine-Mixed Micelles: Development of a Spectrophotometric Assay Suitable for a Micortiterplate Reader” (Analytical Biochemistry, 204, pp 190-197, 1992 by Laure. J. Reynolds. Lori L. Hughes and Edward A. Dennis.
Test compounds (or solvent blank) were added according to the alignment of plates that had been previously set. […] The changes in the absorbance at 405 nm were measured and the inhibition activities were calculated. […]

The compound `CCc1c(C(=O)C(N)=O)c2c(OCC(=O)O)cccc2n1Cc1ccccc1` [Compound 17] registered an IC50 of 12 nM.

The IC50 is the concentration that inhibits the measured activity by half.
